# PubChem BioAssay (Tox21)
# Protein sequences, listed by entry. Tags and fused reporters are not part of them.
# UniProt P28223, whole entry, looked up: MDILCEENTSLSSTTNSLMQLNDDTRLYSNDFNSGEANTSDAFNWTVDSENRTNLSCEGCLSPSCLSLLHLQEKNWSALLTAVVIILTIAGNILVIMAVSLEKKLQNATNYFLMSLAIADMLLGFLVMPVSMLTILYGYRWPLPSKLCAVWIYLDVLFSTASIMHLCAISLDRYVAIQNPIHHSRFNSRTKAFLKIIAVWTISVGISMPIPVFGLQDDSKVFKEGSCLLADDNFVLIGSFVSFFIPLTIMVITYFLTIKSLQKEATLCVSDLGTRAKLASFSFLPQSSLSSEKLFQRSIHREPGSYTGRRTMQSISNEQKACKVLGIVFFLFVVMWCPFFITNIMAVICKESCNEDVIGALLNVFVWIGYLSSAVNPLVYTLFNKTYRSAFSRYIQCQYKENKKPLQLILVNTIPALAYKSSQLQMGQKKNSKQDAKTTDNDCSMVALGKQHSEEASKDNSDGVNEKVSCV
# The list shows a part of the results, in another mix than the full data. Results filed as inconclusive are left out. Where a call stands in place of a potency, no number is given. Activity calls are given as the source filed them. Calls come from the whole dose curve.
# Key:
# [1] = Nuclear factor erythroid 2-related factor 2/antioxidant responsive element (Nrf2/ARE) small molecule agonists: luciferase reporter gene qHTS assay in human keratinocytes (AID 1919969); note: nearly all actives have a fitted effect of over 35% in size
# [2] = p53 small molecule agonists, cell-based qHTS assay with rat liver microsomes: qHTS cell viability counter screen (AID 1963580); note: nearly all actives have a fitted effect of over 45% in size
# Method in brief: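 Viability is assessed in parallel with the p53 reporter read: HCT-116 p53RE-bla cells receive compounds plus rat microsomes and NADPH (0.5 mg/mL final apiece), incubate 16 h at 37 C, and then CellTiter-Glo luminescence is recorded.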
# [3] = target: 5-hydroxytryptamine receptor 2A (Homo sapiens) (UniProt P28223); assay: 5-hydroxytryptamine receptor 2A (HTR2A) small molecule agonists, cell-based qHTS assay (AID 1963587); note: nearly all actives have a fitted effect of over 30% in size
# Method in brief: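 CHO cells stably expressing human HTR2A, plated 18 h, loaded with calcium dye 1 h at 37 C. Agonist mode: compounds added and intracellular calcium fluorescence recorded kinetically for 2 min at 1 sec intervals.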
# [4] = p53 small molecule agonists, cell-based qHTS assay with human liver microsomes (AID 1963577);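 for activation: p53 response element beta-lactamase reporter cells with liver microsomes plus NADPH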
# Method in brief: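 p53RE-bla cells; 5 h settle, 37 C/5% CO2; cpd + HLM 0.5 mg/mL + NADPH 0.5 mg/mL (final); 16 h 37 C; LiveBLAzer 2 h RT dark; fluorescence readout.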
# Potency is the fitted concentration of half-maximal effect.
smiles,measurement,setting,value
CCOC(=O)Cl,Potency,[1],inactive
same,Potency,[2],inactive
same,Potency,[3],inactive
N#CSc1ccc([N+](=O)[O-])cc1[N+](=O)[O-],Potency,[3],inactive
Cc1cc([N+](=O)[O-])cc([N+](=O)[O-])c1O,Potency,[4],inactive
same,Potency,[2],inactive
same,Potency,[3],inactive
COP(=S)(Cl)OC,Potency,[1],inactive
same,Potency,[4],inactive
same,Potency,[2],inactive
same,Potency,[3],inactive
NC(=O)Nc1ccc([As](=O)(O)O)cc1,Potency,[4],inactive
same,Potency,[2],inactive
same,Potency,[3],inactive
CC(C)CCCCCCCOP(OCCCCCCCC(C)C)Oc1ccccc1,Potency,[1],inactive
same,Potency,[4],inactive
same,Potency,[2],inactive
same,Potency,[3],inactive
Cc1cc([N+](=O)[O-])c(O)c([N+](=O)[O-])c1,Potency,[1],inactive
same,Potency,[4],inactive
same,Potency,[2],inactive
CCC(C)(OOC(C)(C)C)OOC(C)(C)C,"activity, positive = activation",[1],inactive: 6.3% [at 19 µM]
same,activation,[4],inactive: -2.19% [at 13.5 µM]
same,"activity change, negative = cytotoxicity",[2],inactive: 3.64% [at 13.5 µM]
same,activation,[3],inactive: 11% [at 15.9 µM]
CN(C(=O)Cc1ccc(Cl)c(Cl)c1)[C@H]1CC[C@@]2(CCCO2)C[C@@H]1N1CCCC1,Potency,[1],inactive
same,Potency,[4],inactive
same,Potency,[2],inactive
same,Potency,[3],inactive
CCCCCCCCCCCCCC[P+](CCCCCC)(CCCCCC)CCCCCC,Potency,[1],inactive
same,Potency,[3],inactive
O=[N+]([O-])c1ccc([N+](=O)[O-])cc1,Potency,[4],inactive
same,Potency,[2],inactive
ClP(Cl)c1ccccc1,Potency,[1],inactive
same,Potency,[4],inactive
same,Potency,[2],inactive
same,Potency,[3],inactive
CC(C)OP(=S)(OC(C)C)SCCNS(=O)(=O)c1ccccc1,Potency,[2],inactive
same,Potency,[3],inactive
O=[N+]([O-])c1ccc(S(=O)(=O)O)c([N+](=O)[O-])c1,Potency,[2],inactive
same,Potency,[3],inactive
O=P(Cl)(Cl)c1ccccc1,Potency,[1],inactive
same,Potency,[4],inactive
same,Potency,[2],inactive
same,Potency,[3],inactive
O=[p+]1oc2ccccc2c2ccccc21 (stereo not given),Potency,[1],inactive
same,Potency,[2],inactive
same,Potency,[3],inactive
CCCCO[P+](=O)OCCCC,Potency,[1],inactive
same,Potency,[4],inactive
same,Potency,[2],inactive
same,Potency,[3],inactive
O=[P+](Oc1ccccc1)Oc1ccccc1,Potency,[4],inactive
same,Potency,[2],inactive
same,Potency,[3],inactive
CCOP(=S)(CC)Sc1ccccc1 (stereo not given),Potency,[1],inactive
same,Potency,[4],active: 6.44 µM
same,Potency,[2],inactive
same,Potency,[3],inactive
O=[As]c1ccccc1 (stereo not given),Potency,[1],active: 0.486 µM
same,Potency,[2],active: 4.08 µM
same,Potency,[3],active: 43.6 µM
COC(=O)Cl,Potency,[1],inactive
same,Potency,[4],inactive
same,Potency,[2],inactive
same,Potency,[3],inactive
O=P(Cl)(Oc1ccccc1)Oc1ccccc1,Potency,[1],inactive
same,Potency,[4],inactive
same,Potency,[2],inactive
same,Potency,[3],inactive
CN(C(=O)Cc1ccccc1)[C@H]1CC[C@@]2(CCCO2)C[C@@H]1N1CCCC1,Potency,[1],inactive
same,Potency,[4],inactive
same,Potency,[2],inactive
same,Potency,[3],inactive
CCNC(C)Cc1ccc2c(c1)OCO2 (stereo not given),Potency,[1],inactive
same,Potency,[4],inactive
same,Potency,[2],inactive
same,Potency,[3],active: 5.9 µM
CN(C(=O)Cc1cccc2occc12)[C@H]1CC[C@@]2(CCCO2)C[C@@H]1N1CCCC1,Potency,[1],inactive
same,Potency,[4],inactive
same,Potency,[2],inactive
same,Potency,[3],inactive
O=C(Cl)OCCOC(=O)Cl,Potency,[4],inactive
same,Potency,[2],inactive
same,Potency,[3],inactive
CN(N=O)C(=N)N[N+](=O)[O-],Potency,[4],inactive
same,Potency,[2],inactive
same,Potency,[3],inactive
CCCCC(CC)CO[P+](=O)OCC(CC)CCCC (stereo not given),Potency,[1],inactive
same,Potency,[4],inactive
same,Potency,[2],inactive
same,Potency,[3],inactive
CCCCOP(OCCCC)OCCCC,Potency,[1],inactive
same,Potency,[2],inactive
same,Potency,[3],inactive
O=C(Cl)Oc1ccccc1,Potency,[1],inactive
same,Potency,[4],inactive
same,Potency,[2],inactive
same,Potency,[3],inactive
O=C1C2CC=CCC2C(=O)N1SC(Cl)(Cl)C(Cl)Cl (stereo not given),Potency,[4],inactive
